Data: PubChem BioAssay AID720542 (National Center for Advancing Translational Sciences (NCATS), 2013)
Only a part is listed here, and it is no random draw. Active and inactive are the calls of the source. Calls follow the shape of the dose curve; as a rule, active = well fitted inhibition curve with a large enough effect; inconclusive = small, poorly fitted or top-dose-only effect; inactive = no such curve, though single readings can be large or run the other way.

The compounds below were run on Plasmodium falciparum AMA1 (3D7) - RON2 peptide interaction (assay: qHTS for Inhibitors of AMA1-RON; Towards Development of Antimalarial Drug Lead: Primary Screen). Details: AlphaScreen AMA1-biotinylated RON2 peptide binding; at 58.2 µM (top of the series).
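Also: 0% = vehicle wells and -100% = peptide control; nearly all actives have a fitted effect of over 45% in size.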

| SMILES | activity change, negative = inhibition |
| --- | --- |
| CCC(=O)N(c1ccccc1)C1(COC)CCN(CCn2nnn(CC)c2=O)CC1 | inactive: -0.502% |
| CCC(=O)N(c1ccccc1)C1(COC)CCN(CCc2cccs2)CC1 | inactive: 33.9% |
